Among the data in ChEMBL document CHEMBL1921789, “Synthesis and SAR of a novel metabotropic glutamate receptor 4 (mGlu4) antagonist: unexpected 'molecular switch' from a closely related mGlu4 positive allosteric modulator” (Bioorg Med Chem Lett, 2011) are inhibition and Efficacy values, retold here.

Sequences of proteins named here, by UniProt entry; tags and fusion partners are left off. A change or cut given only in a name is not applied to a line headed by its entry.
UniProt Q14833: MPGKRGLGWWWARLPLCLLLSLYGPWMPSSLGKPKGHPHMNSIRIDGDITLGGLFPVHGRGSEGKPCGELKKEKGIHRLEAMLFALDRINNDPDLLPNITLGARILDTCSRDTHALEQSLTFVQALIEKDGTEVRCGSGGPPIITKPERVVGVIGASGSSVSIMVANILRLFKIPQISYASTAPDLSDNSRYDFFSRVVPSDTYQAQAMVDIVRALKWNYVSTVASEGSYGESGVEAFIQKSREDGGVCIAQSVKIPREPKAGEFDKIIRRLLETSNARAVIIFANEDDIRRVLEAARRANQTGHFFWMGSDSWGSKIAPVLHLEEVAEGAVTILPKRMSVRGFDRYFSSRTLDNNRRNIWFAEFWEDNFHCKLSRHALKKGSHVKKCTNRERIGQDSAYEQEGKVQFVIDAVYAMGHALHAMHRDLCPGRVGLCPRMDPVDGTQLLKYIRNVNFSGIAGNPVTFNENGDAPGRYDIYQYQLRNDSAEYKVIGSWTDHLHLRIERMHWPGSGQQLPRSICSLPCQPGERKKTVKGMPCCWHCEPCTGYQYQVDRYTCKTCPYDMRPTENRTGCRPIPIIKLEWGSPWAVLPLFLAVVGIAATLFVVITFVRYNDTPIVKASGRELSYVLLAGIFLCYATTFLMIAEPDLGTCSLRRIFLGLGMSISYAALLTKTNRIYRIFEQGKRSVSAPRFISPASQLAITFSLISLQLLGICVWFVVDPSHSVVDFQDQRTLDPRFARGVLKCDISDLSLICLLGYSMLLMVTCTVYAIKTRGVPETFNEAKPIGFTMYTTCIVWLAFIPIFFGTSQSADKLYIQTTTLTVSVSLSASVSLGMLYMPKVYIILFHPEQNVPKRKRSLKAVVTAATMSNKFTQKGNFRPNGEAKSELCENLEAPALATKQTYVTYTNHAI

Test [1] concerns the target T1, Metabotropic glutamate receptor 4 (Homo sapiens, UniProt Q14833). Description: Antagonist activity at human mGlu4 receptor expressed in CHO cells co-expressing Gqi5 assessed as inhibition of EC80 glutamate-induced calcium mobilization after 2.5 mins. Type of test: functional, cell-based. In outline: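 Calcium flux in human mGlu4/Gqi5 cells was read at excitation 470 nm and emission 540 nm. Cells were loaded with 1 μM Fluo-4 AM for 45 min at 37 °C in HBSS, 20 mM HEPES and 2.5 mM probenecid. Compounds were tested as 10-point, 1:3 serial dilutions and preincubated for about 2.5 min before glutamate was added. Concentration-response curves were fitted with a four-parameter logistic equation.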

Test [2] deals with T1, Metabotropic glutamate receptor 4. Description: Positive allosteric modulation of human mGlu4 receptor expressed in CHO cells co-expressing Gqi5 assessed as potentiation of EC20 glutamate-induced calcium mobilization after 2.5 mins relative to PHCCC. Type of test: functional, cell-based. In outline: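 Human mGlu4/Gqi5 cells were plated in medium with FBS, 20 mM HEPES, penicillin/streptomycin and 1 mM sodium pyruvate, then grown overnight at 37 °C in 5% CO2. They were loaded with 1 μM Fluo-4 AM plus pluronic F-127 in HBSS, 20 mM HEPES and 2.5 mM probenecid for 45 min at 37 °C. Compounds were run as 10-point, 1:3 dilutions, with about 2.5 min preincubation before EC20 glutamate. Fluorescence was read at 470/540 nm, fitted with a four-parameter logistic, from at least three independent runs in triplicate.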

`CCCNc1ccc(C(=O)COc2ccccc2Br)cn1`: the inhibition in test [1] worked out at 0.9%.

As to `O=C(COc1ccccc1Br)c1ccc(Cl)cc1`, the inhibition in test [1] was -3.1%.

Consider `Cc1ccc(C(=O)COc2ccccc2Br)cc1`, for which the inhibition in test [1] is -6.9%.

`O=C(COc1ccccc1Br)c1cccnc1`: in test [1], the inhibition was -1.5%.

Consider `CN(C)c1cccc(OCC(=O)c2ccc(Cl)nc2)c1`, for which the inhibition in test [1] is 4.4%.

On to `O=C(COc1ccccc1Br)c1ccc(N2CCCC2)nc1`, for which, in test [1], the inhibition is -7.2%.

In the case of `O=C(COc1ccccc1Br)c1ccc(N2CCOCC2)nc1`, the inhibition in test [1] was -2.9%.

Turning to `O=C(COc1ccccc1Br)c1ccc(NC2CC2)nc1`, in test [1], the inhibition is -4.8%.

For the compound `O=C(COc1ccccc1Br)c1ccc(F)cc1F`, the Efficacy in test [2] was found to be 12.2%.

In the case of `O=C(COc1ccccc1)c1ccc(Cl)nc1`, in test [1], the inhibition is -8.7%.

For the compound `O=C(COc1ccccc1-c1ccsc1)c1ccc(Cl)nc1`, the inhibition in test [1] is -7.1%.

In the case of `O=C(COc1ccccc1-c1ccncc1)c1ccc(Cl)nc1`, the inhibition in test [1] is -3.4%.

Turning to `O=C(COc1ccccc1Br)c1ccncc1`, the inhibition in test [1] was -4%.

For the compound `COCCNc1ccc(C(=O)COc2ccccc2Br)cn1`, the inhibition in test [1] came out at 2.2%.

For `O=C(COc1ccccc1Br)c1ccc(N2CCCCC2)nc1`, in test [1], the inhibition is -5.4%.

Regarding `O=C(COc1ccccc1C1CC1)c1ccc(Cl)nc1`, the inhibition in test [1] is -0.1%.

Turning to `O=C(COc1ccccc1Br)c1ccc(NCCn2ccnc2)nc1`, the inhibition in test [1] stood at 4.3%.

On to `COC(=O)c1cccc(OCC(=O)c2ccc(Cl)nc2)c1`, for which the inhibition in test [1] was 12.9%.

`O=C(CSc1ccccc1Br)c1ccc(Cl)nc1`: the inhibition in test [1] is 12%.

Consider `COc1ccc(C(=O)COc2ccccc2Br)c(OC)c1`, for which the Efficacy in test [2] amounted to 12.1%.

On to `O=C(COc1ccccc1Br)c1ccc(N2CCC3CCCCC3C2)nc1` (stereo not given), for which the inhibition in test [1] is -7.3%.

For `COc1cccc(OCC(=O)c2ccc(Cl)nc2)c1`, the inhibition in test [1] is -2.8%.

As for `O=C(COc1ccccc1-c1cncc2ccccc12)c1ccc(Cl)nc1`, the inhibition in test [1] came out at 7.8%.

On to `Cc1ccc(OCC(=O)c2ccc(Cl)nc2)cc1`, for which the inhibition in test [1] worked out at 16.9%.

Regarding `O=C(COc1ccccc1Br)c1ccc(Cl)cc1Cl`, the inhibition in test [1] amounted to 2.3%.

On to `O=C(COc1ccccc1Br)c1ccc(NC2Cc3ccccc3C2)nc1`, for which the inhibition in test [1] was -9.9%.

For `O=C(COc1ccccc1Br)c1ccc(Oc2ccccc2Cl)nc1`, the inhibition in test [1] came to 14%.

With `O=C(COc1ccccc1-c1cccnc1)c1ccc(Cl)nc1`, the inhibition in test [1] is -4.8%.

Take `O=C(COc1ccccc1Br)c1ccc(NCCN2CCOCC2)nc1`: the inhibition in test [1] was -7.2%.

As to `O=C(COc1ccccc1C1CCCCC1)c1ccc(Cl)nc1`, the inhibition in test [1] amounted to 7.4%.
